Here are results for one molecule from article PMC9407234 (Proceedings of the National Academy of Sciences of the …, 2022).

The assay has as its target replication protein A (RPA), full-length heterotrimer of RPA70, RPA32 and RPA14. The experiment in a line: ITC.

B1: XPA M70-2 (E106K/F112A), full length (natural protein)
chain: MAAADGALPEAAALEQPAELPASVRASIERKRQRALMLRQARLAARPYSATAAAATGGMANVKAAPKIIDTGGGFILEEEEEEEQKIGKVVHQPGPVMEFDYVICKECGKEAMDSYLMNHFDLPTCDNCRDADDKHKLITKTEAKQEYLLKDCDLEKREPPLKFIVKKNPHHSQWGDMKLYLKLQIVKRSLEVWGSQEALEEAKEVRQENREKMKQKKFDKKVKELRRAVRSSVWKRETIVHQHEYGPEENLEDDMYRKTCTMCGHELTYEKM
The term Kd denotes a measure of binding affinity in units of concentration. Low values mean higher affinity, high ones lower affinity. What is called stoichiometry N is a count of units in the complex or per binding partner. In the case of B1, the Kd came to 11 ± 0.5 µM, the dH was -9.08 ± 0.693 kcal/mol and the “stoichiometry N” value turned out to be 2 ± 0.3.
